From patent US8847000B2 (priority 2006, dated 2014)

Assays:
[1] = system: cell proliferation; settings: read-out: IC50 value; 24 h, 37° C.; cytotoxicity, inhibition of cell growth
[2] = system: mouse; settings: cited from earlier work; for LD50: 50% of the fatal dose in mouse

Row | Substance | IC50 [1] | LD50 [2] | Acute toxicity value: LD50 [2]
1 | Arsenic acid | 100 µM | – | –
2 | arsenobetaine | – | 10,000 mg/kg | 10000 mg/kg
3 | arsenocholine | – | 6,000 mg/kg | –
4 | monomethyl arsonic acid | > 6000 µM | 1,800 mg/kg | –
5 | trimethylarsineoxide | – | 10,600 mg/kg | 10600 mg/kg
